# Laboratory results published in PMC4383465 (European journal of pharmacology, 2014).
# Amino acid sequences for entries named in this document (tags omitted).
# UniProt P47746, whole entry: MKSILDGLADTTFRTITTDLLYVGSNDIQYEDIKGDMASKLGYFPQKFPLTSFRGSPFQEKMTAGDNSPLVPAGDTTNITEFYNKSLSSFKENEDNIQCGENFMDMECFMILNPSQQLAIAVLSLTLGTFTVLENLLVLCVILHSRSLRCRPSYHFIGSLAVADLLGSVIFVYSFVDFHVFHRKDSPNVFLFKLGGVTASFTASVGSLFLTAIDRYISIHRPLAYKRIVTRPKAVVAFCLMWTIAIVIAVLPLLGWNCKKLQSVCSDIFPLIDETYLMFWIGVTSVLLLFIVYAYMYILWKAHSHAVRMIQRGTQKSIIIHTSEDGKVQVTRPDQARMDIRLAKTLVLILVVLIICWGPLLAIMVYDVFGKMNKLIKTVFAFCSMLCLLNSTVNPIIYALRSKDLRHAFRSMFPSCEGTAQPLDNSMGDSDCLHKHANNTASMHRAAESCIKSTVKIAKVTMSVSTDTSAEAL
# Several values for one entry are separate records, joined by “and”; a condition that tells them apart may be missing. Identical values can stand only once.
# Molecular target: cannabinoid type-1 receptors endogenously expressed in Neuro2A cells (Mus musculus, UniProt P47746)
# Assay: Intracellular cAMP levels
# Type: cell-based
# Settings: concentration-effect curve, intact Neuro2A cells, 10 μM forskolin
smiles,measurement,value
"Cc1c(C(=O)c2cccc3ccccc23)c2cccc3c2n1[C@H](CN1CCOCC1)CO3 [WIN-55,212-2]",Adenylyl Cyclase Inhibition Imax (% Inhibition),40.3 ± 1.2 % Inhibition and 40.3 ± 1.2^a % Inhibition
